The results in this text go back to patent US5011854A, “Hydroxamic acid derivatives and use thereof in combatting lipoxygenase-mediated diseases” (Kyowa Hakko Kogyo Co. Ltd., priority 1987, dated 1991).

The assay concerns the target T1, 5-lipoxygenase (Rattus norvegicus, UniProt P12527).
T1 construct: rat basophilic leukemia cells (RBL-1, ATCC No. CRL 1378) were used as the 5-lipoxygenase source; endogenous in cells; host or cells: RBL-1 (rat basophilic leukemia, ATCC CRL 1378)
T1 sequence (P12527 1-673): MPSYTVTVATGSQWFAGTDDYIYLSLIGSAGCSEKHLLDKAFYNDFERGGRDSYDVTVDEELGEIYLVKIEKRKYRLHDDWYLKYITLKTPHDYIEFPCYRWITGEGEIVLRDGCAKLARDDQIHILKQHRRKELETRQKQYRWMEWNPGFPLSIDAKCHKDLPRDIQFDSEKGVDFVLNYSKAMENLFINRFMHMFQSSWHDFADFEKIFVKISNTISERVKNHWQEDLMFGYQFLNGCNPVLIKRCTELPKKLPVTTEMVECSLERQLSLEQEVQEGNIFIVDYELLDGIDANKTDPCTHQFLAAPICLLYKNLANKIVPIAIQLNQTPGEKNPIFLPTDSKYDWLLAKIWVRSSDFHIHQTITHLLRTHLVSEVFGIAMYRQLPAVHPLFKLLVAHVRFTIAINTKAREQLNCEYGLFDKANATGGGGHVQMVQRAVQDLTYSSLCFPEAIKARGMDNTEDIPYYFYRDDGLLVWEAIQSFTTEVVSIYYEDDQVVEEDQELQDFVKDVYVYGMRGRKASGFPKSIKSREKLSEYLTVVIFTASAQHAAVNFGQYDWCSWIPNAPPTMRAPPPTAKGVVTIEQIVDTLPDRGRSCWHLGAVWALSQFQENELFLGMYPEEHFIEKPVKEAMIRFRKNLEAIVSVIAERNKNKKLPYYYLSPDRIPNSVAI
The experiment in a line: 5-Lipoxygenase inhibiting activity (Test Example 2, [14C]-arachidonic acid, TLC). It counts as biochemical. The conditions noted are these: RBL-1 cells as enzyme source; 27 μM [14C]-arachidonic acid; pH 7.4; 37° C., 5 min; TLC/scintillation; read-out: Inhibitory Activity IC50, 5-Lipoxygenase. As for the experimental part: The compounds listed in Table 3 were tested for their lipoxygenase inhibiting activity by the following methods:
(a') 5-Lipoxygenase inhibiting activity
Essentially, the same method described in the above (a) was used. Thus, rat basophilic leukemia cells (RBL-1, ATCC No. CRL 1378) were used as the 5-lipoxygenase source. These cells were contacted with the test compound in 30 μl of 0.17 M Tris-hydrochloride buffer (pH 7.4) containing […] calcium chloride, 3.3 mM adenosine triphosphate and 1 mM glutathione at 37° C. for 5 minutes. Then, 25 μl of 27 μM [^14 C]-arachidonic acid was added and the enzymatic reaction was allowed to proceed at 37° C. for 5 minutes. To the reaction mixture was added 50 μl of ethyl acetate/methanol/0.2 M citric acid (30/4/1), and the whole mixture was stirred. The reaction product extracted into the ethyl acetate layer was separated by silica gel thin layer chromatography [Merck Art 5631: developing solvent; petroleum ether/ethyl ether/acetic acid (50/50/1)]. The site of the product [^14 C]-5-hydroxy-6,8,11,14-eicosatetraenoic acid was detected by autoradiography, the gel portion corresponding to the site was scraped off and assayed for ^14 C using a liquid scintillation counter, and the yield of the product was determined. […]

In general, IC50 refers to the concentration at which inhibition is half-maximal. Turning to `Cl.NC1=NN(c2cccc(C(F)(F)F)c2)CC1` [BW-755C, 3-amino-1-(3-trifluoromethylphenyl)-2-pyrazoline hydrochloride, reference compound], the IC50 was 6.5 µM.
